{"source": "patent US9695481B2", "about": "“Polynucleotides comprising a reporter sequence operatively linked to a regulatory element” (UNIVERSITEIT LEIDEN, priority 2010, dated 2017)", "key": {"[1]": {"system": "Bscl2-GFP and Srxn1-GFP mES reporter cells", "assay": "ToxTracker GFP reporter assay (Bscl2-GFP/Srxn1-GFP)", "settings": "from which GFP reporter is induced"}, "Salmonella": {"system": "Salmonella", "settings": "Genotoxicity profile; data extracted from Kirkland et al. 2008; cited from earlier work"}, "[2]": {"settings": "Genotoxicity profile; data extracted from Kirkland et al. 2008; cited from earlier work"}, "[3]": {"settings": "Genotoxicity profile; data extracted from Kirkland et al. 2008; cited from earlier work", "remark": "listed apart in the source"}}, "data": [{"smiles": "CC(C)(C)OO", "note": "[Tert-butyl hydroperoxide]", "values": [{"measurement": "Bscl2-GFP/Srxn1-GFP Prim. toxic properties", "setting": "[1]", "value": "Pro-oxidant"}, {"measurement": "Ames test", "setting": "Salmonella", "value": "Pos."}, {"measurement": "In vitro genotoxicity", "setting": "[2]", "value": "Neg."}, {"measurement": "In vivo genotoxicity", "setting": "[3]", "value": "Neg."}]}]}
